# Source: PubChem BioAssay (Tox21)
# The chains behind the UniProt entries cited, without tags or fusion partners.
# UniProt P28223, whole entry, looked up: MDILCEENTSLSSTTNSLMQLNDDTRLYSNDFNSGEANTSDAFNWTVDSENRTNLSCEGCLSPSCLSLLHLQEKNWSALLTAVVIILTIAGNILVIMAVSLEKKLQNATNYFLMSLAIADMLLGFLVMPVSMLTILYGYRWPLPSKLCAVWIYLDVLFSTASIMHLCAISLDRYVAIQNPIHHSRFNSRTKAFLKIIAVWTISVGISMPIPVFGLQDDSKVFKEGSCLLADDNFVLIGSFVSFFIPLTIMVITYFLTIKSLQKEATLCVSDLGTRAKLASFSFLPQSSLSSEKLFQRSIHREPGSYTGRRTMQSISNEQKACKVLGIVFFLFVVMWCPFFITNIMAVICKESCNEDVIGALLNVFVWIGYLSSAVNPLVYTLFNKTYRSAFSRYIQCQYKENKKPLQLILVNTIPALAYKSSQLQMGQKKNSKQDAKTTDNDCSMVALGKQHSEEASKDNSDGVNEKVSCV
# Only a part is listed here, and it is no random draw. Records with an inconclusive call do not appear. Where a structure was tested more than once in an assay, its records may differ in their call. The source made the active and inactive calls. The call rests on the fitted dose curve.
# Key:
# [1] = molecular target: 5-hydroxytryptamine receptor 2A (Homo sapiens) (UniProt P28223); experiment: 5-hydroxytryptamine receptor 2A (HTR2A) small molecule antagonists, cell-based qHTS assay (AID 1963586); details: HTR2A-CHO cells, DOI-induced calcium flux, fluorescence; further: nearly all actives have a fitted effect of over 45% in size
# Method in brief: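 CHO cells stably expressing human HTR2A were plated for 18 h at 37 C, then loaded with calcium dye for 1 h. Compounds were preincubated 5 min at room temperature before DOI (4 nM solution) was added. Kinetic fluorescence was read for 3 min.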
# [2] = molecular target: 5-hydroxytryptamine receptor 2A (Homo sapiens) (UniProt P28223); experiment: 5-hydroxytryptamine receptor 2A (HTR2A) small molecule agonists, cell-based qHTS assay (AID 1963587); details: HTR2A-CHO cells, calcium flux fluorescence, agonist mode; further: nearly all actives have a fitted effect of over 30% in size
# Text: National Center for Advancing Translational Sciences [NCATS]
# Division of Preclinical Innovation [DPI]
# U.S. Environmental Protection Agency [EPA]
# National Institutes of Environmental Health Sciences [NIEHS]
# National Toxicology Program [NTP]
# U.S. Food and Drug Administration [FDA]
# The HTR2A receptor is a subtype of the 5-HT2 receptor that belongs to the serotonin receptor family and is a G protein-coupled receptor (GPCR). The HTR2A-CHO cell line stably expressing human 5-hydroxytryptamine receptor 2A (HTR2A) can be used for screening agonists of interactions between 5-HT2 and its ligands. The HTR2A-CHO calcium flux assay is a homogeneous fluorescence-based assay for detecting the intracellular calcium level using FDSS kinetic plate reader system.
# HTR2A-CHO cells were dispensed at 2000 cells/3uL/well in 1536-well black-clear bottom plates using a Multidrop Dispenser. After the assay plates were incubated at a 37 C/5% CO2 incubator for 18 h, 3 uL of Dye Loading Buffer was transferred to the assay plate by a Flying Reagent Dispenser. The assay plates were incubated at 37 C for 1h. For agonist mode, 23 nL of compounds dissolved in DMSO, positive controls or DMSO only was transferred to the assay plate by a pin tool. The fluorescence intensity in the plates was measured using FDSS 7000EX kinetic plate reader for 2 min at 1 sec intervals.
# Potency means the concentration at half of the fitted maximal effect.
smiles,measurement,setting,value
CCc1nc(N)nc(N)c1-c1ccc(Cl)cc1,Potency,[1],active: 38.1 µM
same,Potency,[2],active: 55.8 µM
